Assay results taken from US4822773A (Merck & Co., Inc., priority 1987, dated 1989).

Test: Rectal absorption of drugs from aqueous microenema in rats, percent bioavailability versus intravenous administration
Details: vs intravenous
Description: Experiments were performed with rats wherein each animal received an aqueous microenema applied to the rectal cavity. The microenemas contained target drug entity (amount shown in table) in the presence or absence of 5 mg lauroylcholine chloride or palmitoylcholine iodide. Blood levels were monitored and the amount of drug absoreed calculated against intravenous administration and expressed as percent bioavailability.
The amount of drug absorbed is expressed as percent bioavailability versus intravenous administration
Blood was collected and sodium cefoxitin measured. Absorption of sodium cefoxitin is expressed as percent bioavailability versus intravenous administration.

- Percent Bioavailability (mean ± SD) with Control (target drug alone (no choline ester), dose as in table (2.5 mg; polypeptide 0.1 mg)): 4 ± 1.2%
- Percent Bioavailability (mean ± SD) with Lauroyl choline chloride (target drug plus 5 mg lauroylcholine chloride): 132 ± 43.3%
Substance: Gentamicin sulfate
